Experimental data as given in paper PMC3345137 (Toxicology and Applied Pharmacology, 2011).

Protein sequences, listed by entry. Tags and fused reporters are not part of them.
UniProt Q99685, whole entry: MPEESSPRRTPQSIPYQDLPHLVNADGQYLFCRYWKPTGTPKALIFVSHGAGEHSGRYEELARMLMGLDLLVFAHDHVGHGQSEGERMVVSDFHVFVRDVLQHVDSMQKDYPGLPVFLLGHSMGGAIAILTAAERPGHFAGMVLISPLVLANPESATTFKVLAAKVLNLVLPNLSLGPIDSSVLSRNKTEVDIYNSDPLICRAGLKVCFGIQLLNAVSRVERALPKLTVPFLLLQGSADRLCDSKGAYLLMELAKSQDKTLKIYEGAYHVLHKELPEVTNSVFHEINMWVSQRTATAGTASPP

How the values were obtained:
Test in all cases: biochemical
[1] = target: T1, Human recombinant CES1 (Carboxylesterase 1) (Homo sapiens, UniProt P23141)
T1 sequence (P23141 18-567): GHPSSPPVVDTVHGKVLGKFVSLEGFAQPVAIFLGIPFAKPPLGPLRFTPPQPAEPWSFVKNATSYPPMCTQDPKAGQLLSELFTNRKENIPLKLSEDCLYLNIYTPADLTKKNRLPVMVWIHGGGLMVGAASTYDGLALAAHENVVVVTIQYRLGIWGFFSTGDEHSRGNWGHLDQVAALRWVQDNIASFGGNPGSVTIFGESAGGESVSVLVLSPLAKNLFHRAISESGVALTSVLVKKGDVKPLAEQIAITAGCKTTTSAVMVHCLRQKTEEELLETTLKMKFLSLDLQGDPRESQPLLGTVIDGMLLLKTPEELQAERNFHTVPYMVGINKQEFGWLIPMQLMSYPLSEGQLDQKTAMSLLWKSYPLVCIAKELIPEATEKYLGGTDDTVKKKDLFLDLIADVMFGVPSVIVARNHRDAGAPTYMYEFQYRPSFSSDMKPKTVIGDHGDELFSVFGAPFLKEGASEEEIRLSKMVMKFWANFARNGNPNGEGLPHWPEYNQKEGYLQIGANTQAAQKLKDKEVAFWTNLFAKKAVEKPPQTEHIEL

[2] = target: T2, Human recombinant CES2 (Carboxylesterase 2) (Homo sapiens, UniProt O00748)
T2 sequence (O00748 27-559): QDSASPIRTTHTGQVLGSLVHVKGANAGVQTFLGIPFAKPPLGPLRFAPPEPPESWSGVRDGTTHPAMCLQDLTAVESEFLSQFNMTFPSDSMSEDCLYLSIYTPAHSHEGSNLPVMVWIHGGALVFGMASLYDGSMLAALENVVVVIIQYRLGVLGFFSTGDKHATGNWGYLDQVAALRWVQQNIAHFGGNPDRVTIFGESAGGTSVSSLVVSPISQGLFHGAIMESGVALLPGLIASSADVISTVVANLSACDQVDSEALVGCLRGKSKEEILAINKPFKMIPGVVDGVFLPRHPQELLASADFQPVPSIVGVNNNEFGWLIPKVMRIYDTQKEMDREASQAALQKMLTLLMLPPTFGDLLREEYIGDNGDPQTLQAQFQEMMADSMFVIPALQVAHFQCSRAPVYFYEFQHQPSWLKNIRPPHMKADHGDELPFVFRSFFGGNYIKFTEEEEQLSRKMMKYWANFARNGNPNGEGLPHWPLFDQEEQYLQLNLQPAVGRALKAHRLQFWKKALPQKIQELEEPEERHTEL

[3] = target: Human recombinant MGL (Monoacylglycerol lipase) (Homo sapiens, UniProt Q99685)

SMILES: CCOP(=O)(OCC)Oc1nc(Cl)c(Cl)cc1Cl [Chlorpyrifos Oxon, Chlorpyrifos oxon]
- IC50 [1]: 0.15 ± 0.05 nM
- IC50 [2]: 0.33 ± 0.05 nM
- IC50 [3]: 5.1 ± 3.7 nM

SMILES: COP(=O)(OC)Oc1ccc([N+](=O)[O-])cc1 [Methyl Paraoxon, Methyl paraoxon]
- IC50 [1]: 4.8 ± 0.2 nM
- IC50 [2]: 220 ± 50 nM
- IC50 [3]: 1600 ± 960 nM

SMILES: CCOP(=O)(OCC)Oc1ccc([N+](=O)[O-])cc1 [Paraoxon]
- IC50 [1]: 0.38 ± 0.1 nM
- IC50 [2]: 6.2 ± 0.3 nM
- IC50 [3]: 120 ± 40 nM
